Publication PMC5963591, “Bitopic Binding Mode of an M1 Muscarinic Acetylcholine Receptor Agonist Associated with Adverse Clinical Trial Outcomes” (Molecular Pharmacology, 2018)

The chains behind the UniProt entries cited, without tags or fusion partners.
UniProt P11229, whole entry Y106C/A196G: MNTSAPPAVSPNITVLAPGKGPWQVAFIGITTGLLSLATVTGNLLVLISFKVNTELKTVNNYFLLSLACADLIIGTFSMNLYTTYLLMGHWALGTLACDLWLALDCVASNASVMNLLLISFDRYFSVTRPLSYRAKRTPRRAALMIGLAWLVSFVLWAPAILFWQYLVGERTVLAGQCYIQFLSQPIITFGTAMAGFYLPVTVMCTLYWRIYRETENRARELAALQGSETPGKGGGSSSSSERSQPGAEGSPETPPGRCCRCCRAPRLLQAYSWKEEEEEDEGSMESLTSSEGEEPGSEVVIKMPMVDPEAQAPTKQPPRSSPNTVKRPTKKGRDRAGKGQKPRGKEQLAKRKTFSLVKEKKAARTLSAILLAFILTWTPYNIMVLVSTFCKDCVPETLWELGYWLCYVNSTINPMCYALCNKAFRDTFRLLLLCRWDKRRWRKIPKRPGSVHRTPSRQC

Columns and labels:
human M1 mAChR [1] = target: T1, human M1 mAChR (Homo sapiens, UniProt P11229); conditions: ref Ma et al., 2009; Butcher et al., 2016; cited from earlier work
human M1 mAChR [2] = target: T1, human M1 mAChR; conditions: 20 nM [^3H]-GSK1034702
human M1 receptor = target: T2, human M1 receptor (Homo sapiens, UniProt P11229); test: ERK1/2 phosphorylation, CHO Flp-In human M1 cells; assay type: cell-based
T2 construct: expressed in transfected cells; host or cells: CHO Flp-In

humanized M1 DREADD = target: T3, humanized M1 DREADD (Homo sapiens, UniProt P11229, A196G/Y106C); test: IP1 accumulation and ERK1/2 phosphorylation at M1 DREADD, CHO Flp-In cells; assay type: cell-based
T3 construct: expressed in transfected cells; host or cells: CHO Flp-In

human M1 mAChR [3] = target: T1, human M1 mAChR; test: IP-One (IP1) accumulation assay, CHO Flp-In human M1 cells; assay type: cell-based; parameters: expressed in transfected cells; host or cells: CHO Flp-In

## COc1ccc(Cn2cc(C(=O)O)c(=O)c3ccccc32)cc1 [BQCA, benzyl quinolone carboxylic acid, reference compound]
Human M1 mAChR [1]
  potentiation of ACh affinity: approximately 100 fold

## CCCCCCOc1nsnc1C1=CCCN(C)C1 [Xanomeline, xanomeline]
Human M1 mAChR [2]
  displacement of specific [^3H]-GSK1034702 binding: only partially displaced
Human M1 receptor
  ERK1/2 Phosphorylation Log10(τ/KA): 7.1 ± 0.3
  ERK1/2 Phosphorylation ΔLog10(τ/KA): 0.0 ± 0.3
Humanized M1 DREADD
  potency and efficacy at the M1 DREADD compared with the wild-type receptor: significant reduction in potency
Human M1 mAChR [3]; CHO Flp-In human M1 cells
  IP1 Emax: 98.0 ± 1.5
Human M1 mAChR [3]; normalized to reference ligand ACh
  IP1 Accumulation ΔLog10(τ/KA): 1.1 ± 0.1
Human M1 mAChR [3]; transduction coefficient, wild-type M1 mAChR
  IP1 Accumulation Log10(τ/KA): 8.2 ± 0.1
